Test results: PubChem BioAssay (Tox21)
This is a selection; strong and weak results do not stand in their true shares. Records with an inconclusive call do not appear. Active and inactive are the calls of the source. Calls come from the whole dose curve.

By UniProt entry, the sequences of proteins in these tests, tags left out.
UniProt P06401, whole entry: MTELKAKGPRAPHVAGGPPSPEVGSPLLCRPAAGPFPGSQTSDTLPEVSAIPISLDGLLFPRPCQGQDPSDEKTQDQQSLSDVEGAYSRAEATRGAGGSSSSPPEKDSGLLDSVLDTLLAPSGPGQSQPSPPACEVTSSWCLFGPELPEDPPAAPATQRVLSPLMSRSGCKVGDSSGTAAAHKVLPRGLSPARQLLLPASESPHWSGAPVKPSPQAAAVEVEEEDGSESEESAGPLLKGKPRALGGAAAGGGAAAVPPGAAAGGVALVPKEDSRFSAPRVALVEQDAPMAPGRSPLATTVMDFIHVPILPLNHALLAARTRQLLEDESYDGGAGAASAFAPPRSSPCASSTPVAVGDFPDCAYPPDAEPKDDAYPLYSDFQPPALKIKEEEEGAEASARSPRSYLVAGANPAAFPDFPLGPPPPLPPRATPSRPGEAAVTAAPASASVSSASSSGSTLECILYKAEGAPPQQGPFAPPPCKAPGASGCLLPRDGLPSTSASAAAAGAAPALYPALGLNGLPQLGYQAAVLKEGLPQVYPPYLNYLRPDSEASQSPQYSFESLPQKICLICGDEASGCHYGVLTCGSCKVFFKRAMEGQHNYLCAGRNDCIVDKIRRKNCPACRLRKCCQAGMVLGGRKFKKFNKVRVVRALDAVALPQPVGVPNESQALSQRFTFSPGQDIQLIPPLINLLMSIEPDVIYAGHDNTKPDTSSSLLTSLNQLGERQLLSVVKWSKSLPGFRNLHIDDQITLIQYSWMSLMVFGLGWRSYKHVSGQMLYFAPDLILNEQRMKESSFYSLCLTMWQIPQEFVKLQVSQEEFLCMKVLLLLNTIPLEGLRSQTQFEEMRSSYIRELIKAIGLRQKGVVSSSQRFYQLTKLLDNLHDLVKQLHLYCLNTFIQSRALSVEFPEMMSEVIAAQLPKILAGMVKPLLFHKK

molecular target: Progesterone receptor (Homo sapiens) (UniProt P06401); assay: qHTS assay to identify small molecule agonists of the progesterone receptor (PR) signaling pathway (AID 1346784); details: PR-UAS-bla HEK293T, beta-lactamase FRET ratio, 16 h; series mostly up to 92.4 µM; activation: at the top concentration; note: nearly all actives have a fitted effect of over 30% in size
Text: U.S. Tox21 Program National Center for Advancing Translational Sciences [NCATS] NIH Chemical Genomics Center [NCGC] U.S. Environmental Protection Agency [EPA] National Institutes of Environmental Health Sciences [NIEHS] National Toxicology Program [NTP] U.S. Food and Drug Administration [FDA] […] Endocrine disrupting chemicals (EDCs) and their interactions with steroid hormone receptors like PR causes disruption of normal endocrine function. To identify the compounds that activate PR signaling, a PR-UAS-bla GripTite cell line i.e. PR-UAS-bla HEK 293T (Invitrogen, Carlsbad, CA, USA) containing a beta-lactamase reporter gene under the control of an Upstream Activator Sequence (UAS) was used to screen Tox21 10K compound library.
Tox21 Assay Protocol Summary: PR-UAS-bla HEK 293T cells were dispensed at 3,000 cells/5 uL of assay medium containing 2% charcoal stripped FBS per well into black wall/clear-bottom 1536-well plates using a Multidrop Combi (ThermoFisher Scientific, Waltham, MA) dispenser. After the assay plates were incubated at a 37C and 5% CO2 for 6hr, 23 nL of compounds dissolved in DMSO, positive controls or DMSO only was transferred to the assay plate by a Pintool station (Kalypsys, San Diego, CA). The plates were incubated at 37C and 5% CO2 for 16hr. Then 1 uL of LiveBLAzer B/G FRET substrate was added using a BioRAPTR FRD (Flying Reagent Dispenser, Aurora Discovery, San Diego, CA). After the plates were incubated at room temperature for 2 hours, fluorescence intensity was measured by an Envision plate reader (PerkinElmer, Shelton, CT).
% is set by controls: 0 for no effect and ±100 for the full control effect; potency is the fitted concentration of half-maximal effect.

Row | SMILES | Potency | activation
1 | [NH4+].[O-][Cl+3]([O-])([O-])[O-] | inactive | –
2 | Cc1ccc([N+](=O)[O-])cc1[N+](=O)[O-] | inactive | –
3 | C/C1=C2N=C(/C=C3N=C(/C(C)=C4\[N-][C@@](C)([C@@H]5N=C1[C@](C)(CCC(=O)NC[C@@H](C)OP(=O)([O-])O[C@H]1[C@@H](O)[C@@H](n6cnc7cc(C)c(C)cc76)O[C@@H]1CO)[C@H]5CC(N)=O)[C@@](C)(CC(N)=O)[C@@H]4CCC(N)=O)[C@@](C)(CC(N)=O)[C@@H]\3CCC(N)=O)C(C)(C)[C@@H]/2CCC(N)=O.[C-]#N.[Co+3] | – | inactive: -0.474% [at 42.5 µM]
4 | O=[N+]([O-])OCC(CO[N+](=O)[O-])(CO[N+](=O)[O-])CO[N+](=O)[O-] | – | inactive: 0.482%
5 | O=[N+]([O-])[O-].[NH4+] | inactive | –
6 | CCN(CC)CCCl | – | inactive: 3.69%
7 | COP(C)(=O)OC | inactive | –
8 | CP(=O)(O)OCCC[Si](O)(O)O | – | inactive: -0.0814%
9 | CCOP(=O)(CC)OCC | – | inactive: -0.112%
10 | CN(C)CCCl | – | inactive: 4.95%
11 | CC(C)OP(C)(=O)OC(C)C | – | inactive: 0.0923%
12 | Nc1cc([N+](=O)[O-])cc([N+](=O)[O-])c1O | – | inactive: 1.47%
13 | Cc1c([N+](=O)[O-])cccc1[N+](=O)[O-] | inactive | –
14 | N=C(N)N[N+](=O)[O-] | – | inactive: 1.9%
15 | N#CBr | – | inactive: -0.477%
16 | Cc1cccc([N+](=O)[O-])c1[N+](=O)[O-] | active: 2.05 µM | –
17 | OCCSCCO | inactive | –
18 | COc1ccc([N+](=O)[O-])cc1[N+](=O)[O-] | – | inactive: 0.896%
19 | O=[N+]([O-])c1cccc([N+](=O)[O-])c1 | active: 3.19 µM | –
